Test results from patent US8143408B2, “N-(8-heteroaryltetrahydronaphtalene-2yl) or N-(5-heteroarylchromane-3-yl) carboxamide derivatives for the treatment of pain” (AstraZeneca AB, priority 2007, dated 2012).

Amino acid sequences for entries named in this document (tags omitted).
UniProt Q15858, whole entry: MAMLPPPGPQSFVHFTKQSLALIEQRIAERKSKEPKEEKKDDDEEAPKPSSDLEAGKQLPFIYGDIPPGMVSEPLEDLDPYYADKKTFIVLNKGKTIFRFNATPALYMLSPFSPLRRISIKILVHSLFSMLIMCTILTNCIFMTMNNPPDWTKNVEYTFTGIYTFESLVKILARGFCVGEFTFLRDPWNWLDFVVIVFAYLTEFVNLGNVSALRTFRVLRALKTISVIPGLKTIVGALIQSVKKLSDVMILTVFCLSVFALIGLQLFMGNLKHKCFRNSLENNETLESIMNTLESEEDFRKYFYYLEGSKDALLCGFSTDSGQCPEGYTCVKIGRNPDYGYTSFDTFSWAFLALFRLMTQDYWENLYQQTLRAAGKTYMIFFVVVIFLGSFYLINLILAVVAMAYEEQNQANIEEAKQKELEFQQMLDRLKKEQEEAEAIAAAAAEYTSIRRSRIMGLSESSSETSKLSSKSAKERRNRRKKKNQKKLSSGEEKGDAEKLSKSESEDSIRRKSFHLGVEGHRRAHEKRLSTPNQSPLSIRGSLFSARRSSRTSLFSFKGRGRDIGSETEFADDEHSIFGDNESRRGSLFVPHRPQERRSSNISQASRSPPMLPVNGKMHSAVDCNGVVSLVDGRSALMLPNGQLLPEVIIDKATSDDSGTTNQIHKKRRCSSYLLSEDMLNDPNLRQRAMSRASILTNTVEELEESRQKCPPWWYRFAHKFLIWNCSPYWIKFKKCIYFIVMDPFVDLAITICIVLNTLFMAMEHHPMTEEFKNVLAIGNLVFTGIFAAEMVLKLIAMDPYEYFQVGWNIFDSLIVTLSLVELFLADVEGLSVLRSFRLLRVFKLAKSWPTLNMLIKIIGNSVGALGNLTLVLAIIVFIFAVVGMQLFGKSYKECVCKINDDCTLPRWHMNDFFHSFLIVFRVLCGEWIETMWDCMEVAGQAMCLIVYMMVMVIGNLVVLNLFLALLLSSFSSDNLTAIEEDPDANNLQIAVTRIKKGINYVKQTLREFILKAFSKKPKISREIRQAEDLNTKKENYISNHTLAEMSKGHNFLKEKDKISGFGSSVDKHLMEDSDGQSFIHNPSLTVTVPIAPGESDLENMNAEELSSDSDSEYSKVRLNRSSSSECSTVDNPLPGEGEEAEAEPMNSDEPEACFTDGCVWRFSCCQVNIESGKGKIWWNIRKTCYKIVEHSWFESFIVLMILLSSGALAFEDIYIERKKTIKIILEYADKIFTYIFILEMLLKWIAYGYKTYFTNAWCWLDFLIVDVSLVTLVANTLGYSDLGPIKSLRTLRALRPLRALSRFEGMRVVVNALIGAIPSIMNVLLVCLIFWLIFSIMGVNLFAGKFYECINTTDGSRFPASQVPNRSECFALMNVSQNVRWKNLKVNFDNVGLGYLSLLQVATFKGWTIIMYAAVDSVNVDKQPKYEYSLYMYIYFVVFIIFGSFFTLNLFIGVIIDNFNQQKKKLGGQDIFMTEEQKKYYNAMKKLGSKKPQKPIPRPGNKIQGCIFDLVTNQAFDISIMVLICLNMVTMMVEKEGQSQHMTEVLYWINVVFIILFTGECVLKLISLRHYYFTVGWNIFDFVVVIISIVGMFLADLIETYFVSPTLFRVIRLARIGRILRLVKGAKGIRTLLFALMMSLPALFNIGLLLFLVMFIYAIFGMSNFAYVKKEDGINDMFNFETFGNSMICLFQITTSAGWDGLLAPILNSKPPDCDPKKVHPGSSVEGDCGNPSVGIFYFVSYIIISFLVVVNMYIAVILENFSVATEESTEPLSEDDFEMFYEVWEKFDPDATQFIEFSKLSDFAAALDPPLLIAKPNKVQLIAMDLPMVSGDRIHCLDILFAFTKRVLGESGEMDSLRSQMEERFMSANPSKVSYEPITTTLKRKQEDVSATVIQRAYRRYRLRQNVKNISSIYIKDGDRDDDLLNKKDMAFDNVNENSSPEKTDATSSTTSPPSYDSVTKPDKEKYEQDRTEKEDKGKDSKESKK

Biological target: T1, Nav1.7 voltage-gated sodium channel (Homo sapiens, UniProt Q15858)
T1 construct: Gene(s) encoding the full-length protein of the voltage-gated sodium channel of interest are cloned and expressed; expressed in transfected cells
Experiment: Whole-cell voltage clamp electrophysiology assay
Format: cell-based
Conditions: cells stably expressing the voltage-gated sodium channel of interest
Source text: Gene(s) encoding the full-length protein of the voltage-gated sodium channel of interest are cloned and expressed under a suitable promoter in a suitable cell line, as well known in the art. […] Suitable screening assays are as follows.
Electrophysiological studies can be performed using automated patch-clamp electrophysiology platforms, like IonWorks HT, IonWorks Quattro, PatchXpress, QPatch or any other suitable platform. […] Suitable extracellular and intracellular buffer for such experiments are applied according to the instructions given by the manufacturer of the automated patch-clamp platforms. Cells that express the voltage-gated sodium channel protein of interest are exposed to drugs through the pipetting system integrated in the platforms. A suitable voltage stimulus protocol is used to activate the voltage-gated sodium channel proteins of interest through depolarisation from a defined holding potential.
Electrophysiological studies can also be performed using the whole cell configuration of the standard patch clamp technique. In this assay, cells that express the voltage-gated sodium channel protein of interest are exposed to the drugs by conventional microperfusion systems and a suitable voltage stimulus protocol is used to activate the voltage-gated sodium channels.

IC50 [nM] | SMILES
1260 | O=C(N[C@@H]1COc2cccc(-c3cccnc3)c2C1)c1ccc(OC(F)(F)F)cc1 [Example 4, N-[(3S)-5-Pyridin-3-yl-3,4-dihydro-2H-chromen-3-yl]-4-(trifluoromethoxy)-benzamide]
79.4 | COc1ncc(-c2cccc3c2C[C@H](NC(=O)c2ccc(OCCC(F)(F)F)nc2)CO3)cn1 [Example 56, N-[(3S)-5-(2-methoxypyrimidin-5-yl)-3,4-dihydro-2H-chromen-3-yl]-6-(3,3,3-trifluoropropoxy)nicotinamide]
79.4 | O=C(N[C@@H]1COc2cccc(-c3cccnc3)c2C1)c1ccc(OCC(F)(F)F)nc1 [Example 57, N-[(3S)-5-pyridin-3-yl-3,4-dihydro-2H-chromen-3-yl]-6-(2,2,2-trifluoroethoxy)nicotinamide]
79.4 | COc1ncc(-c2cccc3c2C[C@H](NC(=O)c2ccc(OCC(F)(F)F)nc2)CO3)cn1 [Example 86, N-[(3S)-5-(2-methoxypyrimidin-5-yl)-3,4-dihydro-2H-chromen-3-yl]-6-(2,2,2-trifluoroethoxy)nicotinamide]
